## Binding of CDR-mutated scFvs to a peptide of the spike HR2 region

From the AlphaSeq antibody data of Li et al. 2023 (doi:10.1038/s41467-023-39022-2), copy in the FLAb collection.

Target peptide (SARS-CoV-2 spike, HR2 region): PDVDLGDISGINAS

The variants keep the light chain, the linker and the frameworks of Ab-14 (scFv order VH, a 15-residue (Gly4Ser)3 linker, VL).
VH: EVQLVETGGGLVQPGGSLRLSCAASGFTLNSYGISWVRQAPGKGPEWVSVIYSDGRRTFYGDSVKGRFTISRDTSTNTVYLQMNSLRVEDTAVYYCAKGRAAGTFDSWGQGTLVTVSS
VL: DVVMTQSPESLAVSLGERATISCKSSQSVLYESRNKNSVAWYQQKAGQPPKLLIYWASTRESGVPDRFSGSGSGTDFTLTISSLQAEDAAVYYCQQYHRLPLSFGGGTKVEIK

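The parent was found by panning a naive human phage display library on the peptide. This is the validation round: designs drawn from the data on random variants, tested in the same kind of assay. Their group label is 14H_Ctrl (Ctrl: baseline library sampled from a position-specific scoring matrix, with some repeated check sequences). The assay is AlphaSeq: two haploid yeast populations carry antibody and antigen on their surface. After mating in shaken culture at 30 °C for 16 h, diploids were selected and their barcode pairs sequenced. Read counts were normalised to the haploid input and turned into Kd by a linear fit to BCL2-family pairs of known affinity, for each replicate. Each pool was mated in six replicate cultures.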

The parent's heavy chain CDRs are GFTLNSYGIS, VIYSDGRRTFYGDSVK, GRAAGTFDS; each variant's own CDRs replace them letter for letter.
The read-out is the apparent dissociation constant on a log10 scale (nM): the lower, the stronger.
An entry "ND" has no value in the source: the pair was not observed among the diploids in that replicate. This suggests poor binding but is not conclusive.
Of ten entries with the parent sequence, four were seen in most replicates (averages 0.34 to 2.37), three in one and three in none, so single entries are noisy.

CDR-H1,CDR-H2,CDR-H3,"replicates, log10 nM",signal with controls
GFTLNSYGIS,VIYSDGMRTFYSDSVK,QRLAGTFDS,ND ND 1.70 1.97 ND ND,0/18
GFTLCSYGIS,VIYSDGRRTAYGDSVK,GRAAGTPDS,ND ND ND ND ND ND,0/18
GFTLNSYGIS,VIYSDGRRTFYGQSVK,GRADGTFDN,ND ND ND ND ND ND,0/18
GEELNSYGIS,VIYSDGRRTEYGDSVK,GRAAGTFDS,ND ND ND ND ND ND,1/18 (1.13)
GFTLNDYGIS,VIYSDGRRTFYGDSVK,GRAAWTFDS,ND ND ND ND ND ND,1/18 (2.31)
GFPLNSYGIS,VIYSDGFRTFYGDSVK,GRAAGTFDS,ND ND ND ND ND ND,0/18
GEALNSYGIS,VIYSDGRRTFYGDSVK,GRHAGTFDS,ND ND ND ND ND ND,0/18
GFTLNSYGIS,VIYSDGRRTFYGDSVK,GKAADTFDS,ND ND ND ND ND ND,0/18
GFTLNQQGIS,VIYSDGRRTFYGDEVK,GRAAGTFDS,ND ND ND ND ND ND,0/18
GFILNSYGIS,VIYSDGRRTFYGDSVK,GQAAGTFDS,2.86 1.83 1.88 2.22 1.92 2.36,1/18 (3.10)
GTTLNSYGIS,VIYADGRRTFYSDSVK,GQAAGTFDS,0.05 -0.02 0.16 -0.21 -0.15 0.06,0/18
GFDLNSYGIS,VIYSDGRRTYYAYSVK,GRAAGTFDS,2.39 2.61 1.43 ND 2.01 ND,0/18
GFTLNSYGIS,VIYSDGRRTFYQDSVK,GRAAGTFDQ,1.15 ND ND ND ND ND,0/18
GFTINSYGIS,VIYSDGRRTSYTDSVK,GRLAGTFID,ND ND ND ND ND ND,0/18
GFMLNEYGIS,VIYSDGRRVFYGDSTR,GRAAGTFDS,ND ND ND ND 3.12 2.68,1/18 (4.03)
GETLESYGIS,VIYSDGRRTFYIDNVK,GRAAGTFDS,ND ND ND ND ND 2.19,0/18
GFTLNSYGIS,VIYSDGRRTFYDDSVK,GRAAGTFDD,ND ND 1.83 2.34 1.89 1.70,0/18
GFDLNEYGIS,VIYSDGFRTFYGDSVK,GRAAGTFDS,0.44 0.37 0.12 0.14 0.19 0.70,0/18
MFSLNSYGIS,VIYSDGRRTFYGDSVK,GRAAGTFDH,ND ND ND ND ND ND,0/18
GFTLNSYGIS,VIYADGRRTFYSDSVK,GPAAGTFSS,ND 2.64 ND ND ND ND,0/18
GFTLNSYGIS,VIYSDGRRTFYGDSVK,GRAKGAKDS,ND ND ND ND ND ND,0/18
GFTINSYGIS,VIYSDGRRTFYGDSVK,RRAIGTFDS,ND ND ND ND ND ND,0/18
GFTLNSQGIS,VIYSDGQRVFYGDSVK,GRAAGTFDS,ND 1.30 ND ND ND ND,0/18
GFSLNSYGIS,VIYKDGRRTFYGDSVK,GRDAGTFDS,ND ND ND ND ND ND,0/18
GFTLMSYGIS,VIYSDGRRTAYGDSVR,GRAAGTFDS,ND ND ND 2.65 1.68 1.84,0/18
KFTLNSYGIS,VIYSDGRRTFYGDSVK,GKAAGTFFS,ND ND 0.94 ND ND ND,0/18
HFILNQYGIS,VIYSDGRRTFYTDSVK,GRAAGIFDS,ND ND ND ND ND ND,0/18
GFTLNSYGIS,VIYSLGRRTFYADSVK,GRAVGTFDS,ND ND ND ND ND ND,0/18
GFGLNSYGIS,VIYSDGRRTFYGDSVK,GRAAKTFDS,ND ND ND ND ND ND,0/18
GFTMNSYGIS,VIYSDGRRTFYGDSVK,GNAAGTFDS,ND ND ND ND 2.85 2.48,0/18
GFTINSYGIS,VIYSDGRRTFYGDQVK,GRAAGTMDS,ND 1.50 ND ND ND 1.22,0/18
GETLEDYGIS,VIYSDGRRTFYHDSVK,GRAAGTFDS,ND ND ND ND ND ND,0/18
GFTLNSYGIS,VIYSDGRRTFYLDSVS,GRAAGDFDS,ND ND ND ND ND ND,0/18
GFPLNSYGIS,VIYSDGRRTAYGDQVK,GRAAGTFDS,0.09 0.62 ND ND ND -0.63,0/18
HFKLNEYGIH,VIYSDGRRTFYGDSVK,GRAAGTFKV,ND ND ND ND ND ND,0/18
GYTLNSYGIS,VIYADGRRTFYGDSVK,GRAAGTFSV,0.77 0.40 0.33 -0.19 1.15 0.31,1/18 (2.05)
GFTLNSYGIS,VIYSDGRRTFYIDSVK,GYAIGTFDS,ND ND ND ND ND ND,0/18
GFTLNSYGVS,VIYADGRRTFYDDSVK,GRAAGTFDS,0.20 -0.03 -0.13 -0.30 -0.08 -0.20,0/18
GITLNSYGIS,VIYSDGMRTFYGDSVK,GRAAGTFDS,2.72 ND 1.71 2.22 1.09 0.97,1/18 (1.91)
GFDVNSYGIS,VIYSDGRRTFYINSVK,GYAAGTFES,ND ND ND ND ND ND,0/18

From the list, the first 5 with no signal in any replicate:

CDR-H1,CDR-H2,CDR-H3,"replicates, log10 nM",signal with controls
GFTLCSYGIS,VIYSDGRRTAYGDSVK,GRAAGTPDS,ND ND ND ND ND ND,0/18
GFTLNSYGIS,VIYSDGRRTFYGQSVK,GRADGTFDN,ND ND ND ND ND ND,0/18
GEELNSYGIS,VIYSDGRRTEYGDSVK,GRAAGTFDS,ND ND ND ND ND ND,1/18 (1.13)
GFTLNDYGIS,VIYSDGRRTFYGDSVK,GRAAWTFDS,ND ND ND ND ND ND,1/18 (2.31)
GFPLNSYGIS,VIYSDGFRTFYGDSVK,GRAAGTFDS,ND ND ND ND ND ND,0/18

Empty control strains, which show no peptide, gave a signal in 1% of pairings with all heavy chain designs; the median was 2.08 and 95% of these signals were weaker than 0.84. No background was subtracted. Also given: how often the same scFv was detected with the empty control strains, with their mean in brackets.
The authors' rule: three or more of the six replicates give a measured affinity, fewer mean a poor binder.
A sequence measured in both rounds can read differently, since the two assays cover different ranges.